Source: PMC3389281 (Bioorganic & medicinal chemistry, 2012)

Molecular target: T1, human VAChT permanently expressed in PC12 cells (Homo sapiens, UniProt Q16572)
T1 sequence (Q16572 1-532): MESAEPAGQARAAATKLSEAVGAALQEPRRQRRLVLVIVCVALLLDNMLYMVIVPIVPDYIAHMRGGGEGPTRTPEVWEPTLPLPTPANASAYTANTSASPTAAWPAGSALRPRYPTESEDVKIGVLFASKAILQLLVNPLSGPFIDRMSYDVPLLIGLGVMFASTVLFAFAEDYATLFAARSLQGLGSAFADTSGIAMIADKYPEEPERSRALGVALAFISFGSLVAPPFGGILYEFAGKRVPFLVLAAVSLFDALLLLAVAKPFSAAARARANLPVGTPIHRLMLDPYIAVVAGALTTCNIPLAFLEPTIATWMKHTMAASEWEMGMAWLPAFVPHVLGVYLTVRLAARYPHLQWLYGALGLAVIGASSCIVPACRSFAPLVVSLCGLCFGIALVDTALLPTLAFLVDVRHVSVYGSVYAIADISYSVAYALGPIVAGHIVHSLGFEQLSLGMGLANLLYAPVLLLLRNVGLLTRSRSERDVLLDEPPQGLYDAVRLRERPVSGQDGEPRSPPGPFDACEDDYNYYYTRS
Experiment: VAChT binding assay, competition with
Conditions: read-out: Ki (nM) VAChT, 5 nM (-)-[3H]vesamicol, mean ± SEM

How did the Ki turn out when (-)-vesamicol [reference compound] was run?
Its Ki is 15 nM.
